High-throughput results from PubChem BioAssay.
An excerpt weighted towards active compounds, which were near 2.2% of everything screened.
A549 viability: counter-screen for Nrf2 inhibitors: cytotoxicity in A549 cells. A549 ARE-Fluc cells, CellTiter-Fluor viability, 18-24 h. Potency, µM (doses to about 46 µM), for inactives: at the highest dose activity change, negative = cytotoxicity, most hits filed as inhibitors. hit rate 0.16% among 390,000; further: potency means the concentration at half of the fitted maximal effect; on the % scale 0 is the no-effect control and ±100 the full control effect
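A549 ARE-Fluc cells in 5% FBS OPTI-MEM, 5000 cells/well, rested 2 h then exposed to compounds in concentration-response for 18-24 h at 37 °C. Viability by CellTiter-Fluor fluorescence (Ex 405/Em 525) after 30 min; luciferase luminescence (BugLite, 15 min, RT) read afterwards.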
miR-21 reporter: miR-21 reporter, rising signal | AID 2288 | HeLa miR-21 FLuc reporter, luciferase, 48 h | 340,000 tested, under 10 active | Potency, µM (titrated, usually from 38.3 µM), for the others: at the top dose reporter change, positive = more light; active = well fitted rising curve with a large enough effect; inconclusive = small, poorly fitted or top-dose-only effect; inactive = no such curve, though single readings can be large or run the other way;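 also: % of control where 0% means no effect; miR-21 action dims this reporter so a rising signal means less miR-21 action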
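Using DMEM plus 10% FBS, HeLa miR-21-FLuc cells are incubated with test compounds (final up to about 40uM) for 48 hours; firefly luciferase signal is then imaged following reagent-mediated lysis.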
B2AR arrestin: recruits beta-arrestin to the human beta2-adrenergic receptor | AID 492947 | hit rate 0.02% among 330,000 | P07550 | beta-arrestin recruitment to beta2AR, cell-based reporter | Potency, µM (doses to about 46.1 µM), without a hit: at the top dose activation, usual class: activators;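 further: potency means the concentration at half of the fitted maximal effect; 0% = DMSO controls and full agonism = EC100 isoproterenol or metaproterenol; nearly all actives have a fitted effect of over 65% in size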
Nrf2 activator: activates Nrf2 signaling; AREc32 ARE-luciferase reporter (MCF7-derived line), luminescence, 24 h; Potency, µM (series often up to 46.1 µM), for inactives: at the top dose activation, actives largely listed as activators; hit rate 0.31% among 410,000; AID 624171; further: potency means the concentration at half of the fitted maximal effect; % of control where 0% means no effect; nearly all actives have a fitted effect of over 65% in size
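Luciferase luminescence (Steady-Glo, 30 min at room temperature) served as the read-out of ARE activation in AREc32 cells treated with compounds for 24 hr at 37 deg C.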
Nrf2 inh: inhibitors of Nrf2 signaling; A549 ARE-Fluc reporter, luciferase luminescence, 18-24 h; Potency, µM (titrated, usually from 46 µM), for inactives: at the highest dose activity change, negative = inhibition, usual class: inhibitors; hit rate 2.1% among 360,000; further: potency means the concentration at half of the fitted maximal effect; on the % scale 0 is the no-effect control and ±100 the full control effect; nearly all actives have a fitted effect of over 60% in size
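In this cell-based qHTS, ARE-driven firefly luciferase in A549 cells reports Nrf2 activity; the luminescent signal after BugLite lysis is the measured value, with a prior CellTiter-Fluor read for cell health.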
Numbers without * were called inactive. Unless noted, the call rests on the fitted dose curve; in most records, active means well fitted curve in the direction sought with a large enough effect; inconclusive means small, poorly fitted or top-dose-only effect, or another doubt; inactive means no such curve, though single readings can be large; an effect the other way counts as inactive or inconclusive.

Screening O=C(CN1CCOCC1)NN=Cc1ccc([N+](=O)[O-])o1 returned Nrf2 activator -0.6%.
O=C(O)/C=C/c1ccc([N+](=O)[O-])o1 was read as A549 viability -3.0%, miR-21 reporter -4.6%, B2AR arrestin 0.3%, Nrf2 activator inconclusive and Nrf2 inh inconclusive.
O=C(CCN1CCN(c2ccccc2)CC1)N/N=C/c1ccc([N+](=O)[O-])o1 was read as A549 viability inconclusive, miR-21 reporter 22.0%, B2AR arrestin 0.5%, Nrf2 activator 10.6% and Nrf2 inh 20.6µM*.
Screening O=C(Cc1ccc([N+](=O)[O-])cc1)N/N=C/c1ccc([N+](=O)[O-])o1 returned A549 viability -22.4%, miR-21 reporter inconclusive, B2AR arrestin 0.2%, Nrf2 activator 6.0% and Nrf2 inh 20.6µM*.
Cc1ccc(-c2cc(C(=O)N/N=C/c3ccc([N+](=O)[O-])o3)c3ccccc3n2)o1 was read as A549 viability inconclusive, miR-21 reporter 19.0%, B2AR arrestin -1.2%, Nrf2 activator 2.5% and Nrf2 inh 20.6µM*.
`O=C(CNC(=O)C1CCCCC1)OCC(=O)c1ccc(-c2ccccc2)cc1` gave A549 viability -2.0% and Nrf2 inh 8.0%.
Screening COc1ccc(-n2cnc3c(c2=N)C(c2cccc(OC)c2)c2c(ccc4ccccc24)O3)cc1 (stereo unspecified) returned A549 viability -3.8% and Nrf2 inh inconclusive.
Screening Cc1cc(C)cc(OCC(=O)N/N=C/c2ccc([N+](=O)[O-])o2)c1 returned A549 viability inconclusive, miR-21 reporter 25.6%, B2AR arrestin -0.1%, Nrf2 activator 3.6% and Nrf2 inh 20.6µM*.
`O=C(CNc1cccc2ccccc12)N/N=C/c1ccc([N+](=O)[O-])o1` gave A549 viability inconclusive, miR-21 reporter inconclusive, B2AR arrestin -0.5%, Nrf2 activator 10.1% and Nrf2 inh 16.4µM*.
For Cc1ccccc1OCC(=O)N/N=C/c1ccc([N+](=O)[O-])o1 the results were A549 viability -16.9%, miR-21 reporter inconclusive, B2AR arrestin 0.0%, Nrf2 activator 14.1% and Nrf2 inh inconclusive.
CC(C)C(=O)N1c2ncnn2C2(CCCCC2)[C@@H]2CCCC[C@@H]21 was read as A549 viability 12.2%, miR-21 reporter 16.6%, Nrf2 activator 0.2% and Nrf2 inh -12.4%.
O=C(Nc1ccc(O)c2ncccc12)c1ccccc1F was read as A549 viability 2.1% and Nrf2 inh inconclusive.
Screening CC(/C=N/n1c(-c2ccc(C)cc2)n[nH]c1=S)=C\c1ccco1 returned A549 viability 16.0%, miR-21 reporter -3.8%, B2AR arrestin 0.1%, Nrf2 activator inconclusive and Nrf2 inh 13.2%.
CC(/C=N/n1c(-c2ccncc2)n[nH]c1=S)=C\c1ccco1 was read as A549 viability 21.1%, miR-21 reporter 16.9%, B2AR arrestin -0.4%, Nrf2 activator 7.08µM* and Nrf2 inh 15.9%.
Screening S=c1[nH]nc(-c2ccncc2)n1/N=C/C=C/c1ccco1 returned A549 viability -0.4%, miR-21 reporter -0.6%, B2AR arrestin -0.4%, Nrf2 activator inconclusive and Nrf2 inh 8.6%.
Cc1cccc(-c2n[nH]c(=S)n2/N=C/C=C/c2ccco2)c1 was read as A549 viability -3.1%, miR-21 reporter -8.6%, B2AR arrestin 0.4%, Nrf2 activator 2.51µM* and Nrf2 inh -5.8%.
COc1ccc(OC)c(NC(=O)c2c(NCc3ccc(C)o3)sc3c2CCC(C)C3)c1 (stereo unspecified) was read as A549 viability -18.6%, miR-21 reporter 1.3% and Nrf2 activator 24.1%.
`Cc1ccc(C)c(CN2C(=O)c3ccccc3S(=O)(=O)c3ccc(C(=O)N4CCN(c5ccccn5)CC4)cc32)c1` gave A549 viability 9.9%, miR-21 reporter 19.1%, Nrf2 activator 6.4% and Nrf2 inh -16.8%.
For CSC(=Nc1ccccc1)C(C#N)c1nc2ccccc2[nH]1 (stereo unspecified) the results were A549 viability -1.1%, miR-21 reporter -14.2%, B2AR arrestin -0.8%, Nrf2 activator 8.1% and Nrf2 inh -8.9%.
For N#CC(C(=S)Nc1ccccc1)c1nc2ccccc2[nH]1 (stereo unspecified) the results were A549 viability 4.1%, miR-21 reporter 9.8%, B2AR arrestin 1.78µM*, Nrf2 activator 20.6% and Nrf2 inh -6.6%.

Retrieved by structure from the entries so far, 2 records:
O=C(O)/C=C/c1ccc([N+](=O)[O-])o1 was read as A549 viability -3.0%, miR-21 reporter -4.6%, B2AR arrestin 0.3%, Nrf2 activator inconclusive and Nrf2 inh inconclusive.
For Cc1ccccc1OCC(=O)N/N=C/c1ccc([N+](=O)[O-])o1 the results were A549 viability -16.9%, miR-21 reporter inconclusive, B2AR arrestin 0.0%, Nrf2 activator 14.1% and Nrf2 inh inconclusive.

The results go on:
`O=C(COC(=O)c1cc(S(=O)(=O)N2CCOCC2)c(Cl)cc1Cl)NCc1ccco1` gave A549 viability -2.4%, B2AR arrestin 0.0%, Nrf2 activator 7.3% and Nrf2 inh 2.5%.
For O=C(NCc1ccco1)c1cc(S(=O)(=O)N2CCOCC2)c(Cl)cc1Cl the results were A549 viability inconclusive, miR-21 reporter -1.5%, B2AR arrestin 0.2%, Nrf2 activator 0.0% and Nrf2 inh 18.4µM*.
`Cc1ccc(-c2nnc(Nc3ccc(Br)cc3)c3ccccc23)cc1S(=O)(=O)N1CCOCC1` gave A549 viability 3.5%, miR-21 reporter 5.7% and Nrf2 activator -0.7%.
For CN=c1scc(-c2ccc(F)cc2)n1/N=C/c1ccc(O)c(O)c1 the results were A549 viability -16.2%, miR-21 reporter 23.3%, B2AR arrestin -0.2%, Nrf2 activator 17.8% and Nrf2 inh 20.6µM*.
For CCOc1ccc(CNCc2c(C(=O)O)c(C)n(Cc3ccc(C)cc3)c2C)cc1 the results were A549 viability 0.1%, miR-21 reporter 1.1%, Nrf2 activator 2.0% and Nrf2 inh 3.5%.
For c1ccc2c(c1)Nc1cc3ccccc3cc1S2 the results were A549 viability 5.2%, miR-21 reporter -38.1%, B2AR arrestin -0.2%, Nrf2 activator 9.7% and Nrf2 inh inconclusive.
For c1ccc2c(c1)Nc1ccncc1S2 the results were A549 viability -20.5%, miR-21 reporter 12.0%, B2AR arrestin -0.3%, Nrf2 activator 2.9% and Nrf2 inh 29.1µM*.
Screening COC(=O)c1cc(-c2ccccc2)sc1N returned A549 viability 0.6%, miR-21 reporter -42.6%, B2AR arrestin -0.4%, Nrf2 activator 15.8µM* and Nrf2 inh inconclusive.
Nc1sc(-c2ccccc2)cc1C(=O)N/N=C/c1ccc(Cl)cc1 was read as A549 viability -4.0%, miR-21 reporter -18.7%, B2AR arrestin -0.2%, Nrf2 activator 6.8% and Nrf2 inh 16.5%.
For CCCOc1ccccc1C(=O)Nc1ccc(-c2nc3ccc(C)cc3s2)cc1 the results were A549 viability -2.3%, miR-21 reporter -51.1%, Nrf2 activator 2.8% and Nrf2 inh inconclusive.
Screening Cc1cccc(-n2c(SCC(=O)Nc3ccccc3Cl)nc3n[nH]c(C)c3c2=N)c1 returned A549 viability -9.2%, miR-21 reporter 0.4% and Nrf2 activator -2.6%.

Structures above that contain a COOH group, in the order listed:
O=C(O)/C=C/c1ccc([N+](=O)[O-])o1 was read as A549 viability -3.0%, miR-21 reporter -4.6%, B2AR arrestin 0.3%, Nrf2 activator inconclusive and Nrf2 inh inconclusive.
For CCOc1ccc(CNCc2c(C(=O)O)c(C)n(Cc3ccc(C)cc3)c2C)cc1 the results were A549 viability 0.1%, miR-21 reporter 1.1%, Nrf2 activator 2.0% and Nrf2 inh 3.5%.
